This series is described as follows: Diluents lowering the melting point of pelargonic acid: visual appearance (crystal/clear) of pelargonic acid/diluent blends at low temperature.
The mark [1] stands for this setting: pelargonic acid 30 wt % + diluent 70 wt %.
Setting [2] is: pelargonic acid 50 wt % + diluent 50 wt %.
Setting [3] is: pelargonic acid 70 wt % + diluent 30 wt %.
[4] abbreviates: pelargonic acid 80 wt % + diluent 20 wt %, printed in the 0° C. column.

In the case of `CCCCCCO` [Hexanol], the “appearance at 0° C.” value runs as follows: under setting [1], “Clear”; under setting [2], “Clear”; under setting [3], “Clear”. For the same compound, the “appearance at −20° C.” value is “Clear” under setting [1], “Crystal” under setting [2], “Crystal” under setting [3] and “Crystal” (pelargonic acid 80 wt % + diluent 20 wt %). Further, the “appearance at 5° C.” value under setting [4] is “Crystal at 5 °C”. Further, under setting [4], the “appearance at 10° C.” value is “clear at 10 °C”.

These data come from patent US20240206463A1, “AGROCHEMICAL COMPOSITION” (NOURYON CHEMICALS INTERNATIONAL B.V., priority 2021, published 2024).
